# Results published in patent US12398142B2, “Abelson non-tyrosine kinase compounds for the treatment of neurodegenerative diseases” (Emory University, priority 2019, dated 2025).
# Amino acid sequences for entries named in this document (tags omitted). A change or cut given only in a name is not applied to a line headed by its entry.
# UniProt Q12809: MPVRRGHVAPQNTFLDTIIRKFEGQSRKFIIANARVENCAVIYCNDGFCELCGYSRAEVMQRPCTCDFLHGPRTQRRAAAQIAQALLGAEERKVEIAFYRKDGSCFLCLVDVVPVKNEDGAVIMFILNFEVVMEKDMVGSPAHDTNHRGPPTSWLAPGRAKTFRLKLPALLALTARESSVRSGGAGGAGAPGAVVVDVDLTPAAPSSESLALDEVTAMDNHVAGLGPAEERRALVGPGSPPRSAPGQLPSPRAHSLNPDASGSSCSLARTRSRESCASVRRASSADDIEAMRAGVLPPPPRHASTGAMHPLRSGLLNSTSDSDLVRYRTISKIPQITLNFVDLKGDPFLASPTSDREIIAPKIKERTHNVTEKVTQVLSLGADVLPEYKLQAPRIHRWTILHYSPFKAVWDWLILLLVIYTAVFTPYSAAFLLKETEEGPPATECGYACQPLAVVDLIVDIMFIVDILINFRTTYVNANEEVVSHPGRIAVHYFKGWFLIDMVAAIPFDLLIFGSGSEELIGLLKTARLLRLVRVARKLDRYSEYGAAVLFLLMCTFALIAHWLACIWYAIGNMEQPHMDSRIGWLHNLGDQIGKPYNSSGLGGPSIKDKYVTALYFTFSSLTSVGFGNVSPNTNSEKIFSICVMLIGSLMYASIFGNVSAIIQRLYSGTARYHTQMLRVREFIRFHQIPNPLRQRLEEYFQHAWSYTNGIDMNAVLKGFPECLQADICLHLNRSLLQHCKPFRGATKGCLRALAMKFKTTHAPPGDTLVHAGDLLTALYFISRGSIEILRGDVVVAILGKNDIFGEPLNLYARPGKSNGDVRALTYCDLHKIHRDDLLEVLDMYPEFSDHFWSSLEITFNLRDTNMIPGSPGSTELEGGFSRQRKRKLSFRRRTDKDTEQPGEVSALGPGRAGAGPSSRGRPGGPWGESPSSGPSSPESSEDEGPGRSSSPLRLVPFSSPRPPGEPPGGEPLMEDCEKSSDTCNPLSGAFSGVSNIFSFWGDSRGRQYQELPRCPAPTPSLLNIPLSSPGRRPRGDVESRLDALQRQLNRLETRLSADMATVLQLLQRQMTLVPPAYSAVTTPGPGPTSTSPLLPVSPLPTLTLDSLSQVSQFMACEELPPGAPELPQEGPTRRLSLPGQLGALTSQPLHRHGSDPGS
# Tests used:
# hERG [1] = target: T1, hERG (Homo sapiens (Human), UniProt Q12809); details: read-out: hERG IC50; summary table; unit given as mM
# hERG [2] = target: T1, hERG; details: Weisberg et al., Cancer Cell 2005; cited from earlier work
structure (smiles),measurement,setting,value
"Cc1cn(-c2cc(NC(=O)c3ccc(C)c(Nc4nccc(-c5cccnc5)n4)c3)cc(C(F)(F)F)c2)cn1 [Nilotinib, reference compound]",IC50,hERG [1],0.00045 mM
same,IC50,hERG [2],660 nM

# Where two headings read alike, the source gives them in different places.
